Measured values reported in patent publication US20190343953A1, “ANTI-CANCER TREATMENTS WITH AN ANTI-MUC1 ANTIBODY AND AN ERBB INHIBITOR” (Glycotope GmbH, priority 2017, published 2019).

How the values were obtained:
Assay type in all cases: cell-based, human
cancer cells = experiment: Cytotoxicity assay of SeeloMab (PankoMab-ADC), statements for the cancer cells in general; settings: pretreated for 3 days vs non-pretreated
Experimental: The cytotoxic potential of a TA-MUC1 targeting antibody drug conjugate (ADC) was investigated using SeeloMab, the ADC format of PankoMab with a microtubule inhibitor as toxin. Therefore, cells were pre-incubated for 3 days with an optimum concentration of EGFR inhibitor. […] After 3 days the antigen expression was confirmed by flow cytometry and cells were seeded at equal cell density (5000 cells/well) into the wells of a microtiter plate. Cells were incubated with different concentrations of SeeloMab, an isotype matched control ADC and unconjugated PankoMab served as negative control. After 4 days viability of the cells was measured using Celltiter-Glo Luminescent Cell Viability Assay (Promega) and percent proliferation was calculated relative to medium control.

DU145 = experiment: Cytotoxicity assay of SeeloMab (PankoMab-ADC) after EGFR inhibitor pre-incubation, Celltiter-Glo; settings: 3 days pre-incubation with 1 μM erlotinib, 0.1 μM afatinib or 10 μg/ml cetuximab, viability after 4 days
HSC4 = experiment: as above; settings: 3 days pre-incubation with 1 μM erlotinib, 0.1 μM afatinib or 10 μg/ml cetuximab, viability after 4 days

**Q.** Which results are given for “Cetuximab: anti-EGFR antibody, EGFR inhibitor”?
**A.** reduction of proliferation by anti-TA-MUC1 ADC when cancer cells were pretreated with EGFR inhibitor (cancer cells): significantly stronger; Maximum IC50 ratio of EGFRi pretreated group compared to non-pretreated group (DU145): 1.3; Maximum IC50 ratio of EGFRi pretreated group compared to non-pretreated group (HSC4): 1.8
